Among the data in patent publication US20220306659A1, “COMPOUND INHIBITING AND INDUCING DEGRADATION OF EGFR AND ALK” (BEIJING TIDE PHARMACEUTICAL CO., LTD., priority 2019, published 2022) are GI50 values, retold here.

The chains behind the UniProt entries cited, without tags or fusion partners. A line that says so, or that is headed by a name, gives the form on record, which may keep a tag or linker.
UniProt P00533, whole entry T790M/C797S/L858R: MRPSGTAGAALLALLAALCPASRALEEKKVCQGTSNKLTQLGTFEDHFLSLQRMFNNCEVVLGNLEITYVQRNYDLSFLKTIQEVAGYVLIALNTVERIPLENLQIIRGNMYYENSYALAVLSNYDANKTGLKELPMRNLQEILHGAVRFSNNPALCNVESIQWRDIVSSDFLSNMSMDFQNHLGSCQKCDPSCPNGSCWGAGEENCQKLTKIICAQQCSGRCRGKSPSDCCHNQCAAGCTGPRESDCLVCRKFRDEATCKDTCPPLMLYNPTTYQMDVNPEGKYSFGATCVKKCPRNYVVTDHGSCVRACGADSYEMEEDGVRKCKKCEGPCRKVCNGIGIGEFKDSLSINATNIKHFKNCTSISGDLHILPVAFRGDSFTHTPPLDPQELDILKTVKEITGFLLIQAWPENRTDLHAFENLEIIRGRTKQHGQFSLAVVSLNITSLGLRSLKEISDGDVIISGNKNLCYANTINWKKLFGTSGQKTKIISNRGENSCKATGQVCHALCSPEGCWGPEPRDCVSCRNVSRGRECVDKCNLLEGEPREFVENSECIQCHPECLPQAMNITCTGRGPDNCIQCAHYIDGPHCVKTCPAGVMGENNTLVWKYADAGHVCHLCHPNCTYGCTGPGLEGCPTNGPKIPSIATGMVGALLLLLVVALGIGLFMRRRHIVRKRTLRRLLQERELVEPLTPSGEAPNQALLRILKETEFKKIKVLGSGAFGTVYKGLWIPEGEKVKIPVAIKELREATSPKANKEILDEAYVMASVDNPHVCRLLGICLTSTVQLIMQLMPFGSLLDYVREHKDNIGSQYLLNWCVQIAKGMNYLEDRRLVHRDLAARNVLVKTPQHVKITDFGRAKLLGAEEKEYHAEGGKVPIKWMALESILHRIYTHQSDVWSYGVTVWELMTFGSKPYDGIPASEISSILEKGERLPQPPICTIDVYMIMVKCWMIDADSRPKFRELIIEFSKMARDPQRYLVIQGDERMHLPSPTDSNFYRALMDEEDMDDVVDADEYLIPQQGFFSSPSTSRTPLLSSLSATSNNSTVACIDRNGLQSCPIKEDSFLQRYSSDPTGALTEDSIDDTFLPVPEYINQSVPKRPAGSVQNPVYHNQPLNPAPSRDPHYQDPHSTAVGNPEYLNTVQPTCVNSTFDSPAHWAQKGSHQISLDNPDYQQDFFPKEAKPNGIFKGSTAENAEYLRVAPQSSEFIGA
UniProt P00533, with tags, fused parts or gaps C797S/DEL746-750/T790M: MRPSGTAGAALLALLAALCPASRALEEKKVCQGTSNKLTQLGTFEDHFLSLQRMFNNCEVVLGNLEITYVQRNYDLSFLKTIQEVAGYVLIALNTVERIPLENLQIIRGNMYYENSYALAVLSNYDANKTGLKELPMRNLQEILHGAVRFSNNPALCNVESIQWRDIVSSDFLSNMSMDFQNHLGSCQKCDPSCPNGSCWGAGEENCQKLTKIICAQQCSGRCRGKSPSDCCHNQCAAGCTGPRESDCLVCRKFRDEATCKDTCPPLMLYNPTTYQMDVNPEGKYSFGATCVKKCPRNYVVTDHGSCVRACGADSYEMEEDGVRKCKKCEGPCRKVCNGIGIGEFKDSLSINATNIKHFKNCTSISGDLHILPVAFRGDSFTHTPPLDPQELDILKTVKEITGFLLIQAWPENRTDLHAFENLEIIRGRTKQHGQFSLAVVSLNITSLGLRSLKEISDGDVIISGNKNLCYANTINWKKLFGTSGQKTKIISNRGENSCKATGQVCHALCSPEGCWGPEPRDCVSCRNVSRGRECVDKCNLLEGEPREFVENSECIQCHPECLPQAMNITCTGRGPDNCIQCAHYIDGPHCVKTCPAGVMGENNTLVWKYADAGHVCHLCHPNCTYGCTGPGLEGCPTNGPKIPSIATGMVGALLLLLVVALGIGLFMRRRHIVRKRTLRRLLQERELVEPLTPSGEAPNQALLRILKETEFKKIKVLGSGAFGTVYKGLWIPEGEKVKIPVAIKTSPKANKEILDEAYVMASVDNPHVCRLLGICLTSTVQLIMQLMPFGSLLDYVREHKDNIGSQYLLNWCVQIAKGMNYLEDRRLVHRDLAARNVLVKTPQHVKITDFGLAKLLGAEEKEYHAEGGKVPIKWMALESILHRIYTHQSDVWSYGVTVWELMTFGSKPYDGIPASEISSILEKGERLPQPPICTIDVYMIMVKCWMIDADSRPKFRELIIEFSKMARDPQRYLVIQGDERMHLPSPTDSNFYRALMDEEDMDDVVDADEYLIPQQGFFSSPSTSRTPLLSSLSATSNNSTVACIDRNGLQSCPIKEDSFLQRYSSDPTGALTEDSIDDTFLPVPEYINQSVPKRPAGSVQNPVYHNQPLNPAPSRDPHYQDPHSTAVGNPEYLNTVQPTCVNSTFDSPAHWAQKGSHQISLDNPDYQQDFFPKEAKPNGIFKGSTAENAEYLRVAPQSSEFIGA
UniProt Q9UM73, whole entry: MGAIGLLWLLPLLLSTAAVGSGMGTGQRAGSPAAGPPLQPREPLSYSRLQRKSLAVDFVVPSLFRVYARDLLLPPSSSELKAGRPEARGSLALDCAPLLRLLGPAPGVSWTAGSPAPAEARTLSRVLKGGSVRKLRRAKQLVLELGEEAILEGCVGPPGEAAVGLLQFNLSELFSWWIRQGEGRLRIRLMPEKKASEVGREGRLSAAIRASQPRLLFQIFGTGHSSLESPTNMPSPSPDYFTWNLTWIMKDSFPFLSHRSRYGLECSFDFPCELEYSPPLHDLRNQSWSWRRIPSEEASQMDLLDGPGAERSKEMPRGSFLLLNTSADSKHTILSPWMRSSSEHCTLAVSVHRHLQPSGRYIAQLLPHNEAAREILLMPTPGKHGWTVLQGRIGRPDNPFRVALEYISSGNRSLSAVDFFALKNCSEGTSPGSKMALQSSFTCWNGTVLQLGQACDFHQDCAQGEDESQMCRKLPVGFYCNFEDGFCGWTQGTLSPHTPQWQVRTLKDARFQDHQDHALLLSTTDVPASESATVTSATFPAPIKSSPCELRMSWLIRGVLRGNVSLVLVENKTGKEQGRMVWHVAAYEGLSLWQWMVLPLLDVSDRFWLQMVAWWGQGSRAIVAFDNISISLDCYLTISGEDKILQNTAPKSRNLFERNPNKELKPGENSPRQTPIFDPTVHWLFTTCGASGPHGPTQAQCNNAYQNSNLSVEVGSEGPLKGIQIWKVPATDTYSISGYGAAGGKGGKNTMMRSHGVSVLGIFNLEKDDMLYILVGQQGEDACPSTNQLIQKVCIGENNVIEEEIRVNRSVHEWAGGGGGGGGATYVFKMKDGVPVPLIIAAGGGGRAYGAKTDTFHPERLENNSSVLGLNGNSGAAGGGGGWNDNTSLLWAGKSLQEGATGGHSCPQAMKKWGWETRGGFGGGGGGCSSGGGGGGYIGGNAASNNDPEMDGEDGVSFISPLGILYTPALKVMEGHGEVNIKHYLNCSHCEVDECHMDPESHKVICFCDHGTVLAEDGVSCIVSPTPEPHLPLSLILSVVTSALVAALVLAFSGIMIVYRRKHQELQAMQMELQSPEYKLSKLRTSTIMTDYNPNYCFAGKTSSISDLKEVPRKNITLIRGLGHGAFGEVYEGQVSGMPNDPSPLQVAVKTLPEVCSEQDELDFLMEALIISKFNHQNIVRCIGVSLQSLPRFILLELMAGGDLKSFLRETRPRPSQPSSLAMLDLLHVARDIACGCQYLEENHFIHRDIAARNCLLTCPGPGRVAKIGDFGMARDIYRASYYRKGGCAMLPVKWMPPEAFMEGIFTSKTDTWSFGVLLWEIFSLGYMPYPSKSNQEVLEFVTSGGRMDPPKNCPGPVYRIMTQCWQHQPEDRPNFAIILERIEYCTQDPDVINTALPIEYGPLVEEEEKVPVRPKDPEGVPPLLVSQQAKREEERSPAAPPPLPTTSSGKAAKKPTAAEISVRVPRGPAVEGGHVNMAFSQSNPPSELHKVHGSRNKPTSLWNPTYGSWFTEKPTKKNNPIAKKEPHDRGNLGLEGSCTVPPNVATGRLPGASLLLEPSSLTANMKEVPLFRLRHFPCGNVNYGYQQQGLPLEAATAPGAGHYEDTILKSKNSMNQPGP

Assay type in all cases: cell-based
Assay [1] addresses Ba/F3(EGFR^L858R/T790M/C797S) cells (Homo sapiens, UniProt P00533, T790M/C797S/L858R, cells depend on it). Put plainly: Assay of activity on Ba/F3 cells (CTG, 72 h). Particulars: read-out: IC50 (nM) Ba/F3 (EGFR^L858R/T790M/C797S).
For a further assay, the target named is Ba/F3(EML4-ALK) cells (Homo sapiens, UniProt Q9UM73). Nature of the assay: Assay of activity on Ba/F3(EML4-ALK) cells (CTG, 72 h). The settings on record: read-out: IC50 (nM) Ba/F3(EML4-ALK).
The target in assay [2] is Ba/F3(EGFR^Del19/T790M/C797S) cells (Homo sapiens, UniProt P00533, DEL746-750/T790M/C797S, cells depend on it). Put plainly: Assay of activity on Ba/F3 cells (CTG, 72 h). Particulars: read-out: IC50 (nM) Ba/F3 (EGFR^Del19/T790M/C797S).

With `COc1cc(N2CCC3(CCNCC3)CC2)c(C)cc1Nc1ncc(Br)c(Nc2ccc3nccnc3c2P(C)(C)=O)n1`, in assay [1], the GI50 was in the range of 101 to 200 nM.
On to `COc1cc(N2CCC3(CCN(CCCCCC#Cc4cccc5c4C(=O)N(C4CCC(=O)NC4=O)C5=O)CC3)CC2)c(C)cc1Nc1ncc(Br)c(Nc2ccc3nccnc3c2P(C)(C)=O)n1` (centres unmarked), for which the GI50 on Ba/F3(EML4-ALK) cells was 101 to 200 nM; in assay [2], 1 to 100 nM.
For `COc1cc(N2CCC(N3CCN(CCOCC#Cc4cccc5c4CN(C4CCC(=O)NC4=O)C5=O)CC3)CC2)c(C)cc1Nc1ncc(Br)c(Nc2ccc3nccnc3c2P(C)(C)=O)n1` (centres unmarked), the GI50 in assay [1] and in assay [2] was 1 to 100 nM in each case.
